The values that follow are results of earlier work, collected in patent publication US20130225597A1, “USE OF PHOSPHODIESTERASE INHIBITOR TO ENHANCE POST-SURGICAL ERECTION IN MEN UNDERGOING RADICAL PROSTATECTOMY” (University of Medicine and Dentistry of New Jersey, priority 2010, published 2013).

For the data set, the system named is spinal motor and non-motor neurons. Conditions: cited from earlier work.

In the case of `OCCN(CCO)c1nc(N2CCCCC2)c2nc(N(CCO)CCO)nc(N3CCCCC3)c2n1` [dipyridamole], the “protection against acute Reactive Oxygen Species-induced neurotoxicity” value is “protect”.
